This note sets out measurements from US12528818B2, “Compositions and methods for inhibition of RAS” (Leidos Biomedical Research, Inc., priority 2021, dated 2026).

Sequences of proteins named here, by UniProt entry; tags and fusion partners are left off. Residues count along the entry.
UniProt P01116, 1-169 isoform 2 C118S/G12C limits assumed: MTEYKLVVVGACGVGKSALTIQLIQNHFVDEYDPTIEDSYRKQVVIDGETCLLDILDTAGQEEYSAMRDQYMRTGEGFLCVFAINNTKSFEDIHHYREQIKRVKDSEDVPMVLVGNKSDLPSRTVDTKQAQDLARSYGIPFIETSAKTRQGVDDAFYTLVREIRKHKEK
UniProt P01116, 1-169 isoform 2 G12C limits assumed: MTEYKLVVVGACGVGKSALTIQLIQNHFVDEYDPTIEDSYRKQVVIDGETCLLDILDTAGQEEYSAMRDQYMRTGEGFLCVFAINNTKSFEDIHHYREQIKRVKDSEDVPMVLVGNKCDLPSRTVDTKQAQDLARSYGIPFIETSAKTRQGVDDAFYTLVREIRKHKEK

The target in test [1] is GppNHp-loaded KRAS4b (amino acids 1-169) G12C/C118S protein (Homo sapiens, UniProt P01116, C118S/G12C). Nature of the test: Covalent cysteine 12 modification by MALDI-TOF MS, GppNHp-loaded KRAS G12C. Conditions: 15 minutes reaction time.
The target of test [2] is GTP-loaded KRAS4b (amino acids 1-169) G12C/C118S protein (Homo sapiens, UniProt P01116, C118S/G12C). Put plainly: Covalent cysteine 12 modification by MALDI-TOF MS, GTP-loaded KRAS G12C. Conditions: 15 minutes reaction time, compound 95 or later using 1 μM proteins.
Test [3] concerns the target GDP-loaded KRAS4b (amino acids 1-169) G12C/C118S protein (Homo sapiens, UniProt P01116, C118S/G12C). Put plainly: Covalent cysteine 12 modification by MALDI-TOF MS, GDP-loaded KRAS G12C. To be noted: 15 minutes reaction time.
In the next test the test system is pERK in NCI-H358 cells. Nature of the test: Cell-based pERK HTRF assay (pERK inhibition in H358 cells). To be noted: read-out: PERK in H358 cell, 30 min incubation. (TR-FRET usually uses a lanthanide donor and a delayed reading to cut background.)
Test [4] has as its target Avi-KRAS G12C (1-169) GppNHp/RAF1 RBD-3xFLAG (52-151) (Homo sapiens, UniProt P01116, G12C). Nature of the test: Raf1 RBD-KRAS G12C-GppNHp disruption assay (protein:protein interaction HTRF). To be noted: read-out: Raf1-GppNHp-KRAS G12C disruption.
[5] abbreviates: compound 95 or later using 1 μM proteins.
The mark [6] stands for this setting: compounds 94 or before using 5 μM proteins.

A value given as a limit tells only on which side of the number the result lay.

On to `C=CC(=O)N1C[C@H](C)N(c2nc(OC[C@@]34CCCN3C[C@H](F)C4)nc3c(F)c(-c4ccc(F)c5sc(N)c(C#N)c45)c(Cl)cc23)C[C@H]1C`, for which the “GppNHp-KRAS G12C percent of modification” value in test [1] (setting [5]) is given as “A (percent of modification ≥70%)”. In addition, the “GTP-KRAS G12C percent of modification” value in test [2] is recorded as “B (50≤percent of modification <70%)”. In addition, the “GDP-KRAS G12C percent of modification” value in test [3] (setting [5]) is recorded as “A (percent of modification ≥70%)”. Besides, the results for the IC50 (in the test with pERK in NCI-H358 cells; in test [4]) were < 0.1 µM and < 0.5 µM, respectively.
For the molecule `N#CN1CC2(CCN(c3ncnc4c(F)c(-c5ccc(F)c6sc(N)nc56)c(Cl)cc34)CC2)C1`, the “GppNHp-KRAS G12C percent of modification” value in test [1] (setting [6]) is “C (10%≤percent of modification <50%)”. Further, the “GDP-KRAS G12C percent of modification” value in test [3] (setting [6]) is on record as “B (50≤percent of modification <70%)”. The IC50 in test [4] lay within 0.5 to 5 µM.
Take `C=CC(=O)N1CC[C@@H](N(C)c2c(C#N)c(OC[C@@]34CCCN3C[C@H](F)C4)nc3c(F)c(-c4ccc(F)c5sc(N)nc45)c(Cl)cc23)C1` (atropisomer, axis not shown) [Compound 234]: the “GppNHp-KRAS G12C percent of modification” value in test [1] (setting [5]) is given as “D (percent of modification <10%)”. Moreover, the “GDP-KRAS G12C percent of modification” value in test [3] (setting [5]) is “A (percent of modification ≥70%)”. Also, the IC50 in the test on pERK in NCI-H358 cells was 0.1 to 1 µM; in test [4], > 20 µM.
As for `C=CC(=O)N1CC[C@@H](N(C)c2nc(OC[C@]34CCCN3C[C@H](F)C4)nc3c(F)c(-c4ccc(F)c5sc(N)c(C#N)c45)c(Cl)cc23)[C@H]1C` (relative stereo), the “GppNHp-KRAS G12C percent of modification” value in test [1] (setting [5]) was “A (percent of modification ≥70%)”. For the same molecule, the “GTP-KRAS G12C percent of modification” value in test [2] was “B (50≤percent of modification <70%)”. Further, the “GDP-KRAS G12C percent of modification” value in test [3] (setting [5]) was “A (percent of modification ≥70%)”. Further, the values for the IC50 (in the test with pERK in NCI-H358 cells; in test [4]) were < 0.1 µM and < 0.5 µM, respectively.
Consider `C=CC(=O)N1CC[C@@H](N(CC)c2nc(OC[C@@H]3C[C@@H](F)CN3C)nc3c(F)c(-c4ccc(F)c5sc(N)c(C#N)c45)c(C(F)(F)F)cc23)[C@H]1C` (relative stereo), for which the “GppNHp-KRAS G12C percent of modification” value in test [1] (setting [5]) is “C (10%≤percent of modification <50%)”. In addition, the “GTP-KRAS G12C percent of modification” value in test [2] is “C (10%≤percent of modification <50%)”. Moreover, the “GDP-KRAS G12C percent of modification” value in test [3] (setting [5]) was “C (10%≤percent of modification <50%)”. Further, the IC50 was < 0.1 µM in the test on pERK in NCI-H358 cells and < 0.5 µM in test [4].
`C=CC(=O)N1CC[C@@H](N(CC)c2nc(OC[C@@]34CCCN3C[C@H](F)C4)nc3cc(-c4ccc(F)c5sc(N)c(C#N)c45)c(C#N)cc23)[C@H]1C` (relative stereo): the “GppNHp-KRAS G12C percent of modification” value in test [1] (setting [5]) was “A (percent of modification ≥70%)”. The “GTP-KRAS G12C percent of modification” value in test [2] is on record as “A (percent of modification ≥70%)”. Further, in test [3] (setting [5]), the “GDP-KRAS G12C percent of modification” value is “A (percent of modification ≥70%)”. The IC50 was < 0.1 µM in the test on pERK in NCI-H358 cells and < 0.5 µM in test [4].
